{"source": "patent US20210087232A1", "about": "“D-ENANTIOMERIC PEPTIDES FOR ANTI-INFLAMMATORY TREATMENT OF AMYOTROPIC LATERAL SCLEROSIS (ALS) AND OTHER DISEASES DRIVEN BY NEURO-INFLAMMATION” (FORSCHUNGSZENTRUM JUELICH GMBH, priority 2018, published 2021)", "origin": "cited, not measured here", "test_system": "ALS patients", "conditions": "cited from earlier work", "data": [{"smiles": "Nc1nc2ccc(OC(F)(F)F)cc2s1", "note": "[riluzole]", "values": [{"measurement": "survival time of patients", "result": "prolonging the survival time of patients by a few months"}]}]}
